The assay has as its target T1, Borealin N-terminal domain (20-88) (human, UniProt Q53HL2 20-88, biotinylated on the Avi-tag (co-expression with BirA)).
T1 construct: range 20-88; The construct carries His- and Avi-tags; Expressed in E. coli; Immobilised via neutravidin (ELISA) or His-tag/NTA chip (SPR); also called Bor-N
T1 sequence (looked up): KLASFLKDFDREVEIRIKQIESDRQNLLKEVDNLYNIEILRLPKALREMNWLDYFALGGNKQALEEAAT
Put plainly: single-point Fab ELISA, 50 nM biotinylated target on neutravidin, protein L-HRP [panel A]. Here is the method: To rapidly reconfirm the binding and specificity of the obtained Fabs after reformatting into the expression vectors single-point Fab ELISA was performed (FIG. 2). Briefly, 50 nM Avi-tagged targets were immobilized on the prepared NAV-coated and blocked with 0.5% BSA in PBS 96-well ELISA plates. The target coated plates were washed with appropriate buffer (TBST or PBST) and were incubated with 200 nM Fab for 20 minutes and then washed. The washed plates were incubated with protein L conjugated with HRP (1:5000 diluted in TBST) for 30 minutes. Plates were washed and the reaction was developed using the TMB chromogenic substrate (Thermofisher) and subsequently quenched with 1M HCl. Absorbance was read at 450 nm on Epoch plate reader.
(ELISA stands for enzyme-linked immunosorbent assay.)

The values below come from US20250127814A1 (UNIVERSITY OF CHICAGO, published 2025).

B1: BOR-N-55 (Fab, V domains shown)
VH: EVQLVESGGGLVQPGGSLRLSCAASGFNVYYSSIHWVRQAPGKGLEWVASISPYYGSTSYADSVKGRFTISADTSKNTAYLQMNSLRAEDTAVYYCARRWYYTKVFMWGMDYWGQGTLVTVSS
VL: DIQMTQSPSSLSASVGDRVTITCRASQSVSSAVAWYQQKPGKAPKLLIYSASSLYSGVPSRFSGSRSGTDFTLTISSLQPEDFATYYCQQSSSSLITFGQGTKVEIKR
In the case of B1, the binding result is “no binding (tested: 200 nM)”.
